# PubChem BioAssay AID485358 (National Center for Advancing Translational Sciences (NCATS), 2010)
# Protein sequences, listed by entry. Tags and fused reporters are not part of them.
# UniProt P14416, whole entry: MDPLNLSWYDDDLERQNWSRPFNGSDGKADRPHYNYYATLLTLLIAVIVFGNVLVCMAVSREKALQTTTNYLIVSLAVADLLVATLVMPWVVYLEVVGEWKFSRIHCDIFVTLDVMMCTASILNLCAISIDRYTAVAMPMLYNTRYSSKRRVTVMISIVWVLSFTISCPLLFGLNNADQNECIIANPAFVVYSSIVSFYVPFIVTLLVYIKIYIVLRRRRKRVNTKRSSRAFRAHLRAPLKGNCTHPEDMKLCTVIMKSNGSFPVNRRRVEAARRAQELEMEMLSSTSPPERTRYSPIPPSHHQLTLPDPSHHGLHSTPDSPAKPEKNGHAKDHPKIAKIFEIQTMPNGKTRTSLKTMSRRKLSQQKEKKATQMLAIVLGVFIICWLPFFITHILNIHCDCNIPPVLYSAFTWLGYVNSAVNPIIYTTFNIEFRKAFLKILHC
# “And” between values parts separate entries of the source, which are not always exact repeats. Identical values can stand only once. Only a part is listed here, and it is no random draw. Some tests of the compounds listed are not included; inactive here does not mean inactive elsewhere. The source made the active and inactive calls.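 The calls were made as follows: active = activation over 3 SD above normal in the single-dose calcium agonist read (cut at about 30% in these data); inactive = the rest.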
# Target: D(2) dopamine receptor (Homo sapiens) (UniProt P14416)
# Assay: HTS Assay for Allosteric Agonists of the Human D2 Dopamine Receptor: Primary Screen for Agonists; also: 0% is about no effect
# Conditions: HEK293 T-REx D2 cells, calcium flux agonist mode; at 2 µM; hits give high values
# Text: NIH Chemical Genomics Center [NCGC] NIH Molecular Libraries Probe Centers Network [MLPCN] MLPCN Grant: NS064831-01 Assay Submitter (PI): David Sibley Dopamine receptors (DARs) are involved in the etiology and/or therapy of a number of neuropsychiatric and endocrine disorders. For instance, all receptor-based antiparkinsonian drugs work via stimulating the D2 DAR subtype whereas all FDA-approved antipsychotic agents are antagonists of this receptor. […] There are three different types of allosteric modulators that we are seeking, two of which will stimulate or augment receptor signaling, allosteric agonists and potentiators, while the third, allosteric antagonists, will attenuate receptor signaling. The present primary screening assay measures compound agonism by tracking calcium flux in a […], inducible Hek293 Trex D2 cell line.
# Freshly passaged cells are plated in 1536 well black, clear bottom plates at a density of 4000 cells/well in 3 ul of complete media containing 1x tetracycline inducer. After an overnight incubation at […] in 5% CO2, cells are loaded with 2 ul of the no wash Calcium Assay Kit (ABD Bioquest) and incubated at room temperature for 30 to 90 minutes. Agonist read: A 10 cycle (1 second/cycle) baseline measurement is taken and then the FDSS online 1536 pintool delivers 23 nl of compound library (as well as dopamine controls) to the plate. The plate is measured for kinetically at 1 cycle/sec for 180 seconds and is considered to be the agonist portion of the assay (eg, compounds which activate a positive calcium response during this portion are flagged as potential agonists). Following the 180 second read, 1 ul of either an EC20 (positive modulation assay) or EC80 (negative modulation assay) is delivered by an onboard pipette head. Measurements are taken kinetically for an additional 180 seconds.
row,SMILES,activation
1,O=C(OC1CN2CCC1CC2)C(CO)(c1ccccc1)c1ccccc1 (configuration not stated),inactive: 0.916%
2,CC(C)COc1ccc(C(=O)NCC2(N(C)C)CCCCC2)cc1,inactive: 1.41%
3,COc1cc(C(=O)NCC2(N(C)C)CCCCC2)cc(OC)c1OC,inactive: 1.76%
4,Cc1cccc(C(=O)NCC2(N(C)C)CCCCC2)c1,inactive: 0.297%
5,COc1ccc(Br)c(C(=O)NCC2(N3CCCCC3)CCCCC2)c1,inactive: -0.0055%
6,CC(C)Oc1ccc(C(=O)NCC2(N(C)C)CCCCC2)cc1,inactive: 0.784% and inactive: 0.0228%
7,CN(C)c1cccc(C(=O)NCC2(N(C)C)CCCCC2)c1,inactive: -0.105%
8,CN(C)C1(CNC(=O)c2ccc(Br)cc2)CCCCC1,inactive: 0.264%
9,COc1cc(C(=O)NCC2(N(C)C)CCCCC2)c([N+](=O)[O-])cc1OC,inactive: -1.25%
10,COc1cccc(C(=O)NCC2(N3CCCCC3)CCCCC2)c1,inactive: 0.515%
11,COc1ccc(Cl)cc1C(=O)NCC1(N(C)C)CCCCC1,inactive: 0.521%
12,COc1ccc(C(=O)NCC2(N(C)C)CCCCC2)cc1Cl,inactive: 1.16%
13,O=C(NCC1(N2CCCCC2)CCCCC1)c1cccc(Cl)c1,inactive: 0.536%
14,Cc1ccccc1C(=O)NCC1(N2CCCCC2)CCCCC1,inactive: 0.906%
15,CN(C)C1(CNC(=O)c2ccccc2[N+](=O)[O-])CCCCC1,inactive: 0.838%
16,CN(C)c1ccc(C(=O)NCC2(N(C)C)CCCCC2)cc1,inactive: -0.562%

row,SMILES,activation
1,CN(C)C1CCCC1OC(=O)C(O)(c1ccccc1)c1ccccc1 (configuration not stated),inactive: -1.43%
2,CCCCOc1ccccc1C(=O)NCC1(N(C)C)CCCCC1,inactive: 0.703%
3,O=C(NCC1(N2CCCCC2)CCCCC1)c1cc(F)c(F)cc1Cl,inactive: -0.36%
4,COc1ccc(C(=O)NCC2(N(C)C)CCCCC2)cc1,inactive: -0.651%
5,CCOc1cccc(C(=O)NCC2(N(C)C)CCCCC2)c1,inactive: 0.622%
6,CCN1CCCC(OC(=O)C2(O)c3ccccc3C=Cc3ccccc32)C1 (configuration not stated),inactive: 1.6%
7,Cc1cc(C(=O)NCC2(N3CCCCC3)CCCCC2)ccc1[N+](=O)[O-],inactive: 1.38%
8,O=C(NCC1(N2CCCCC2)CCCCC1)c1cccc(Br)c1,inactive: 1.42%
9,O=C(NCC1(N2CCCCC2)CCCCC1)c1cc([N+](=O)[O-])ccc1Cl,inactive: 0.353%
10,CN1[C@@H]2CC[C@H]1CC(OC(=O)C(O)(c1ccccc1)c1ccccc1)C2 (some centres not stated),inactive: -0.321%
11,CCN(CC)CC(C)C(C)OC(=O)C(O)(c1ccccc1)c1ccccc1 (configuration not stated),inactive: 1.83%
12,CN(C)C1(CNC(=O)c2cccc(Cl)c2)CCCCC1,inactive: 0.73%
13,COc1cc(SC)ccc1C(=O)NCC1(N(C)C)CCCCC1,inactive: 0.196%
14,CC(C)N1C(=O)CC2(CCN(CCOC(=O)C(O)(c3ccccc3)c3ccccc3)CC2)C1=O,inactive: 0.323%
15,Cc1ccc(C(=O)NCC2(N3CCCCC3)CCCCC2)cc1,inactive: -0.394%
16,CN(C)C1(CNC(=O)c2ccccc2F)CCCCC1,inactive: 1.62%
